This is an account of results in PubChem BioAssay AID1422 (Emory University Molecular Libraries Screening Center, 2008).

By UniProt entry, the sequences of proteins in these tests, tags left out.
UniProt P43116, whole entry: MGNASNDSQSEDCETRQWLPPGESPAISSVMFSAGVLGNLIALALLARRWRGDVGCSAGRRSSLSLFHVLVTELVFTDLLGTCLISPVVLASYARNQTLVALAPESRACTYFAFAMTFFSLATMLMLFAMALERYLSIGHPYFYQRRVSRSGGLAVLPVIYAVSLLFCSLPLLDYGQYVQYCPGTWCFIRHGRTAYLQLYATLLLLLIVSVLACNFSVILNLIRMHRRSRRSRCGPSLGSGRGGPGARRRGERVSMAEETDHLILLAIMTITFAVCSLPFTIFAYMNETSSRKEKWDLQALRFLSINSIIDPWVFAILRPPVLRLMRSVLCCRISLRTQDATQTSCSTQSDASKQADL

The entries are a selection whose mix differs from that of the whole data set. Some of these compounds have results that are not shown, active ones among them. The source made the active and inactive calls.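 How the source made its calls: active means percent inhibition above 40 after rounding to a whole number; inactive means the rest.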

The experiment deals with Prostaglandin E2 receptor EP2 subtype (Homo sapiens) (UniProt P43116). The experiment can be described thus: blockers of PGE2-driven EP2 cAMP signalling – TR-FRET cAMP, C6 glioma cells, primary screen (AID 1422).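 Further: rat C6 glioma host cells with rolipram phosphodiesterase inhibitor present; the protocol text gives 20 µM as final concentration.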 Particulars: C6 glioma cells expressing human EP2, cAMP TR-FRET; at 25 µM; active compounds read high; cells stimulated with saturating PGE2. A general note: TR-FRET usually uses a lanthanide donor and a delayed reading to cut background.
Take `C=C(C)C#C[C@@](O)(C(=O)OC1CCN(C)CC1)c1ccccc1`: the inhibition is inactive: 6.44%.

Take `O=C(OC1CN2CCC1CC2)C(CO)(c1ccccc1)c1ccccc1` (configuration not stated): the inhibition was inactive: 2.18%.

Regarding `CN(C)c1cccc(C(=O)NCC2(N(C)C)CCCCC2)c1`, the inhibition is inactive: 9.54%.

For the molecule `COc1ccc(Br)c(C(=O)NCC2(N3CCCCC3)CCCCC2)c1`, the inhibition is inactive: 6.49%.

Regarding `COc1cccc(C(=O)NCC2(N3CCCCC3)CCCCC2)c1`, the inhibition was inactive: 1.93%.

`CN(C)C1CCCC1OC(=O)C(O)(c1ccccc1)c1ccccc1` (configuration not stated): the inhibition was inactive: 8.47%.

Consider `Cc1ccccc1C(=O)NCC1(N2CCCCC2)CCCCC1`, for which the inhibition was inactive: 1.31%.

As to `CCN1CCCC(OC(=O)C2(O)c3ccccc3C=Cc3ccccc32)C1` (configuration not stated), the inhibition is inactive: 8.92%.

Consider `C=CCN1CCN(CCOC(=O)C(O)(c2ccccc2)c2ccccc2)CC1`, for which the inhibition was inactive: 7.65%.

For the molecule `O=C(NCC1(N2CCCCC2)CCCCC1)c1cc([N+](=O)[O-])ccc1Cl`, the inhibition is inactive: 6.58%.

Turning to `CCN(CC)CC(C)C(C)OC(=O)C(O)(c1ccccc1)c1ccccc1` (configuration not stated), the inhibition was inactive: 10.3%.

Turning to `CC(C)N1C(=O)CC2(CCN(CCOC(=O)C(O)(c3ccccc3)c3ccccc3)CC2)C1=O`, the inhibition is inactive: 8.3%.

Broadly, the inhibition is the relative decrease from the control value, in per cent.
